The text below walks through data of article PMC4835042 (Bioorganic & medicinal chemistry letters, 2015).

In the test the test system is amphetamine-induced hyperlocomotion. As to conditions: 100 mg/kg p.o., rat.

With `O=C1c2cc(COc3ccccc3)nn2CCN1c1ccc(F)cn1` [4k], the “reversal of amphetamine-induced hyperlocomotion at 100 mg/kg” value was “full reversal”.
